In paper PMC7616682 (Journal of biological inorganic chemistry : JBIC : a …, 2024):

Assay: LogP by shake-flask method (n-octanol/phosphate buffer)
Conditions: n-octanol/phosphate buffer 50 mM pH 7.4
Protocol: using the "shake-flask" method.[6],[7] In short, phosphate buffer (50 mM, pH 7.4) was saturated with n-octanol by shaking a 1:1 mixture of both solution on a laboratory shaker for 72 h, after which the phases were separated. Stock solutions of each complex were then prepared in dimethylsulfoxide at a concentration of 10 mM. […]
(§1) solution with a concentration of 100 µM. From this solution, 1000 µL were transferred into an Eppendorf tube and mixed with 1000 µL of n-octanol. After shaking for 15 min and centrifugation (5 min, 6000 rpm), the two phases were carefully separated, and the contact layer discarded. Then, the absorbance of each phase was recorded with an Agilent 8453 UV/Vis spectrometer.
as §1, with “2 mL solution with” for “solution with”, “1000 µL phosphate buffer. After shaking” for “1000 µL of n-octanol. After shaking”, “rpm), the phases were” for “rpm), the two phases were”

Row | Substance | LogP
1 | [Au(triazolatoC6H5,biotin)(PPh3)] [Compound 12] | highly lipophilic^a
2 | [Ir(triazolatoC6H5,biotin)(ppy)(terpy]PF6 [Compound 18] | 0.14
